This passage reports Kd results from US20250034112A1, “IMPROVED SELECTIVE JAK2 INHIBITORS AND METHODS OF USE” (Yale University, priority 2021, published 2025).

Sequences of proteins named here, by UniProt entry; tags and fusion partners are left off. Residues count along the entry.
UniProt O60674, 536-812 W659A/W777A/F794H: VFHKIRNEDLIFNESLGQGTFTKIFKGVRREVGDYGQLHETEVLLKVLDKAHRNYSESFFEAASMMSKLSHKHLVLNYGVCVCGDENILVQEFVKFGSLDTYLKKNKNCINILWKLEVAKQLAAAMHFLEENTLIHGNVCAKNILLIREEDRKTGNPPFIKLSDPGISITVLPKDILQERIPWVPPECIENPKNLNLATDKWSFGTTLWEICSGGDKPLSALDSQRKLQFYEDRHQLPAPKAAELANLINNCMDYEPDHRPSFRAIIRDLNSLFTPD

This experiment concerns the target WT JAK2 JH2 (Homo sapiens (Human), UniProt O60674, F794H/W659A/W777A). Nature of the experiment: Competitive fluorescence polarization (FP) binding assay, WT JAK2 JH2. (In fluorescence polarisation assays a small probe gives low polarisation when free and higher when bound to something large.)
`N#Cc1ccc(Nc2nc(N)nc(Oc3c(F)cccc3F)n2)cc1N` [Compound 33r] had a Kd of 123 ± 22 µM.

As for `COc1ccc(F)c(Oc2nc(N)nc(Nc3ccc(C#N)c(N)c3)n2)c1F` [Compound 33s], binding was characterised by a dissociation constant (Kd) of 54.7 ± 12.2 µM.

The compound `N#Cc1ccc(Nc2nc(N)nc(Oc3ccc4[nH]ccc4c3)n2)cc1N` [Compound 33t] had a Kd of 23.2 ± 1.4 µM.

As a reminder, the Kd is the concentration at which binding is half-saturated. High values mean weaker binding, low ones tighter binding.
